Tested on: primary colon cancer samples from patients with high M3 receptor expression grown as organoids
Settings: carbachol added on top of the antagonist zamifenacin; organoids without EGF and FGF

Compound: C[N+](C)(C)CCOC(N)=O [carbachol]
- Reversal of the inhibition of organoid growth by the antagonist: able to reverse the inhibition

Source: patent publication US20240066018A1 (priority 2022, published 2024)
